# According to ChEMBL document CHEMBL4303101, “Identification of inhibitors of SARS-CoV-2 in-vitro cellular toxicity in human (Caco-2) cells using a large scale drug repurposing collection” (2020):
# System: SARS-CoV-2
# Conditions: Homo sapiens; Caco-2; 10 uM
smiles,measurement,value
CN(CCCl)CCCl,inhibition,-2.61%
